Ab-14 light chain CDR variants: yeast mating affinities

Data: MIT Lincoln Laboratory AlphaSeq set, Li et al. 2023, doi:10.1038/s41467-023-39022-2, as distributed in FLAb.

The target is the same throughout: PDVDLGDISGINAS, from the HR2 region of SARS-CoV-2 spike.

Ab-14 is the parent antibody, in scFv form: VH, then the linker GGGGSGGGGSGGGGS, then VL. The heavy chain is unchanged in all variants.
VH: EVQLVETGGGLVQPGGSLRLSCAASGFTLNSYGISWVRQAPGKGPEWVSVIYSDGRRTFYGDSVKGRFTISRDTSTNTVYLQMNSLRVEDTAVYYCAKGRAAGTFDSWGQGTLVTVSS
VL: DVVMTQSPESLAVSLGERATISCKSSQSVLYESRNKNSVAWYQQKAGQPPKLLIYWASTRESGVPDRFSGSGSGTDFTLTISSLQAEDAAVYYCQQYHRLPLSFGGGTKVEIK

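The starting antibody came from a phage panning campaign against this peptide. Designed CDR sequences, proposed from the first random library and measured here. Group labels follow the data file (En: ensemble of fine-tuned language models; GP: Gaussian process model; HC: hill climbing; Gen: genetic algorithm; Gibbs: Gibbs sampling; a sequence that several methods proposed may carry one label only). The scFvs were displayed on barcoded MATa yeast, the peptide on MATalpha yeast. Binding brings cells together so that they mate, and sequencing counts the barcode pairs among the diploids. A regression on co-assayed BCL2-family reference pairs converts the normalised counts of each replicate to an apparent Kd. The assay was run in six technical replicates.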

Each variant is given by its three light chain CDRs, as the data file delimits them; those of the parent are KSSQSVLYESRNKNSVA, WASTRES, QQYHRLPLS.
This list holds designs with more than six substitutions.
Values are apparent Kd, the geometric mean of the replicates that gave a signal; lower means stronger binding.
An entry "no signal" has no value in the source: the pair was not observed among the diploids in any replicate. This suggests poor binding but is not conclusive.
Of ten entries with the parent sequence, four were seen in most replicates (averages 2.2 nM to 240 nM), three in one and three in none, so single entries are noisy.

CDR-L1	CDR-L2	CDR-L3	group	Kd (apparent)	seen in
RITPLSDYYNENRNAIA	QTSLKAH	QQYQMLPLT	En_Gibbs	8.1 nM	6/6
KISQMSTIESISHNSVA	QTSTRES	QQYDRLPLS	En_HC	3.0 nM	6/6
SLFESEREELSVEQNIA	DGTEHMD	QQYFRLPLL	En_Gibbs	3.9 nM	6/6
KWSCSQLYDSANKNSVA	NAQTRMM	QQYHRLPLS	GP_Gibbs	1.7 nM	6/6
NLGGLDVNSTYEMKAVA	DVSEVGE	QHYSRLPLS	En_Gibbs	44 nM	6/6
NLSIQTQHQNMDANAVA	QTEIREV	QQYAQLPLA	En_Gibbs	320 nM	5/6
KISKPWELGEPSTNAVA	NADIANA	QQYSRLPLS	En_Gibbs	2.4 nM	6/6
NLGFEDANDNRGMMAVA	DVNTVGE	QHYNRLPLS	En_Gibbs	20 nM	6/6
KLSASQLYESRASNAVA	NASQRMD	QQYHRLPLS	GP_Gibbs	660 pM	6/6
HMSMLTLGGMRHKNSVA	QMTTREN	QQYDHLPLS	En_Gen	5.0 nM	6/6
KLSMSVNFFGHAINSVA	EMETREN	QQYDRLPLS	En_HC	38 nM	6/6
MISQLYNMGTFAINSVA	QASVRNA	QQYDRLPLM	En_Gen	8.9 nM	5/6
VLHNNCSDYDMYRNSIA	DAQHREA	QQYYRLPFT	En_Gibbs	6.1 nM	6/6
RIQEQMQKPDNIGQNVA	ENQTVID	QQYAHLPLI	En_Gibbs	90 nM	4/6
QVFAFNEHLKDQTQAMA	NATMRDQ	QQYERLPLS	En_Gibbs	12 nM	6/6
KLDQSGLYGSRNKNSVA	EASYRES	QQYHRLPLY	GP_Gibbs	5.6 nM	6/6
NFSMSDQYQMQEQGNIA	QTEQKAN	QQYFRLPLT	En_Gibbs	1.2 nM	6/6
KISYMGEHFSTNHSAIA	QASTREQ	QQYHRLPIS	En_HC	42 nM	6/6
KLGEQGGHSMDHANNIA	EVDMLAQ	QQYMHLPLI	En_Gibbs	1.3 nM	6/6
KLSQSHWGESRNKNSVA	HASLREV	QQYHRLPLS	GP_Gibbs	4.1 nM	6/6
KLSLFYRMETRNKNSVA	DNSTRES	QDYDRLPLS	En_HC	660 nM	4/6
KVQLGLERGNQAYSAVA	GVTQKGD	QQYFQLPLG	En_Gibbs	67 nM	6/6
MMSQVTGLGQRHRNNVA	QTSTREE	QQYDRLPLA	En_Gen	3.7 nM	6/6
KISMEPLVEWNHAQAIA	DAHASYI	QQYFHLPLY	En_Gibbs	no signal	0/6
KLTSITGTEKVHGNNVA	EMETRES	QQYNRLPLS	En_Gen	1.4 nM	6/6
MISQIYNMGSFAINSVA	QASTRNA	QQYDRLPLM	En_Gen	22 nM	6/6
SISMSMAFLSRNKNSVA	ENSTREY	QQYDRLPLL	En_HC	89 nM	6/6
KMQQSELMESRNVNSVA	HASLRLE	QQYHRLPLS	GP_Gibbs	2.2 nM	6/6
MFSQLVYTGSRTRNAVA	QASTREN	QQYHRLPLS	En_HC	30 nM	6/6
ALSQSMDMTSLNRNSVA	DLTTREN	QQYHRLPLS	En_HC	29 nM	5/6
KISINQMHYNKMRSNIA	NTSQKAM	QQYFHLPLM	En_Gibbs	37 nM	6/6
SVTRYTDENGLKMNSVA	DAAERMT	QQYHRLPLT	En_Gibbs	840 pM	6/6
KITATMRFEQKISNNIA	EVTLRSN	QQYYRLPLS	En_Gen	27 nM	3/6
QLEFERGQEWKNGAAIA	GNTESLH	QQYAMLPLS	En_Gibbs	930 nM	5/6
KISGMYQKESKNKNNVA	EMVNRES	QQYDRLPLS	En_HC	2.1 nM	6/6
HITYGMQVAGRHSKSIA	QAETREK	QQYDRLPLA	En_Gen	1.7 nM	6/6
FLMQSWDYESRNKNSVA	NASKRMS	QQYHRLPLS	GP_Gibbs	2.8 nM	6/6
HMSMLTLSGQRHRNAVA	QMTTREN	QQYDRLPLI	En_Gen	44 nM	5/6
TISQMWFLESKNKNNVA	EENTRED	QSYFRLPLS	En_HC	4.5 nM	6/6
KYQGQELTESRNKNSVA	NASTRES	QQYHQLPLS	GP_Gibbs	1.2 nM	6/6
KLSMVTNQEHKVKNSIA	EMVTREK	QQYDRLPLF	En_HC	5.0 nM	6/6
MISQVMNTLTRNGNNVA	DLTEREK	QQYFRLPLS	En_Gen	15 nM	5/6
KISMLYNYESTNKNSIA	EMTTREE	QHYHRLPLS	En_HC	59 nM	2/6
KISQMVTYESTWWNAIA	QTSEREE	QQYHRLPLS	En_HC	9.7 nM	6/6
RFPEHLLMLESKIYNIA	NATKTME	QQYFRLPFV	En_Gibbs	1.4 nM	6/6
KLDLNNGEMDKKGQNIA	EASTAGT	QSYWRLPLS	En_Gibbs	no signal	0/6
SLKTMPGEGPQEYSSIA	HAELRTP	QQYYRLPLM	En_Gibbs	4.6 nM	6/6
KLSQSMEYESRNSKSVA	NASTRVS	QQYHRLPLS	GP_Gibbs	1.3 nM	6/6
SLADSVHMESRNKNSVA	DNSTRES	QHYHRLPLS	En_HC	220 nM	5/6
KLSQYVGGESRNKSSLA	DNSTRET	QQYHRLPLS	En_HC	43 nM	6/6
TLYGLSNSMSKNKNSVA	EMTTREK	QQYDRLPLV	En_Gen	5.0 nM	6/6
KFSQSKEGVTYEGESIA	GSVTIQE	QQYDRLPLA	En_Gibbs	88 nM	3/6
KVSEFMKGLMMKTDSIA	DNVTRNN	QQYDRLPLS	En_Gen	13 nM	6/6
KIGMTLNQLLHQKNNVA	DLVMREN	QQYHRLPLS	En_Gen	1.0 nM	6/6
KIGMTLNQLLHKKNNVA	DLVERET	QQYHRLPLS	En_Gen	1.7 nM	6/6
KLDQWQLGESRNKNSVA	SASTRCS	QQYHRLPLS	GP_Gibbs	1.3 nM	6/6
TISQSAQMESHAKNSVA	DLNVRGS	QQYDRLPLS	En_HC	2.5 nM	6/6
KLQEQSLYWSRNKNSVA	EASTRES	QQYHRLPLS	GP_Gibbs	1.3 nM	6/6
KLGAWMYWQTEAKYAIA	QDEMRVH	QQYDRLPLM	En_Gibbs	no signal	0/6
SFSQHTMEEMSSNKAVA	EVTTLMN	QQYAQLPFI	En_Gibbs	9.2 nM	6/6
KLDQSVMLESRNKNAVA	EASTRMS	QDYHRLPLS	GP_Gibbs	1.5 nM	6/6
KLSQSHLYESRNSNNVA	MASTRMV	QQYHRLPLS	GP_Gibbs	820 pM	6/6
RMEWHNSGALEAKNSVA	GVEHRAN	QQYDRLPLE	En_Gibbs	6.3 nM	6/6
NLQNGGSELSVWSRNIA	DANIRES	QQYFRLPLL	En_Gibbs	1.2 nM	6/6
TISQMTSLFSQTINNVA	EVSTREQ	QQYDRLPLA	En_Gen	5.7 nM	6/6
QLSGPMMMESKNKNSVA	EFSTRGS	QQYHRLPLS	En_HC	78 nM	5/6
KVSEFMRGLMGRKDSIA	DNETRSN	QQYDRLPLS	En_Gen	18 nM	6/6
KLQQFYEGESRNKNSVA	SASTRRS	QQYHRLPLS	GP_Gibbs	2.9 nM	6/6

A selection of 6 entries from above:

CDR-L1	CDR-L2	CDR-L3	group	Kd (apparent)	seen in
RFPEHLLMLESKIYNIA	NATKTME	QQYFRLPFV	En_Gibbs	1.4 nM	6/6
KIGMTLNQLLHQKNNVA	DLVMREN	QQYHRLPLS	En_Gen	1.0 nM	6/6
KLSASQLYESRASNAVA	NASQRMD	QQYHRLPLS	GP_Gibbs	660 pM	6/6
KLTSITGTEKVHGNNVA	EMETRES	QQYNRLPLS	En_Gen	1.4 nM	6/6
HMSMLTLGGMRHKNSVA	QMTTREN	QQYDHLPLS	En_Gen	5.0 nM	6/6
KLDLNNGEMDKKGQNIA	EASTAGT	QSYWRLPLS	En_Gibbs	no signal	0/6

Values of this round are not directly comparable with the first-round values of the same sequences.
Empty control strains, which show no peptide, gave a signal in 4% of pairings with all light chain designs; the median was 430 nM and 95% of these signals were weaker than 38 nM. No background was subtracted.
In the paper, a design with two or fewer of six values counts as a poor binder.